From patent publication US12415832B2, “B-catenin/B-cell Lymphoma 9 protein-protein interaction inhibiting peptidomimetics” (University of South Florida, priority 2019, dated 2025) come the findings set out here.

The data set concerns SW480 cells. Particulars: 1 and 10 μM, 2 h.

Regarding “Flu-Beta-Ala-SQEQLEHRERSLQTLRDIQRMLF [Peptide 1-FITC]”, the “cellular uptake, intracellular green fluorescence” value was “negligible green fluorescence”.
